The target of the test is Cholinesterase (Homo sapiens, UniProt P06276). Nature of the test: Inhibition of BChE in human serum assessed as hydrolysis of butyrylthiocholine by Ellman's method. Type of test: cell-free. Summed up:
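Human serum BChE (0.44 U/mL solution) in 0.1 M phosphate buffer pH 8.0 with S-butyrylthiocholine iodide and DTNB. Absorbance at 410 nm followed kinetically for 4 min at 30 °C, at least four replicates. Inhibition % = 100 − 100·V/V_max, where V_max comes from blanks without inhibitor; one-sided t-test. IC50 obtained by non-linear regression of the dose–response, given as mean ± SEM.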
For orientation: DTNB colorimetry detects thiols as they appear.

Amino acid sequences for entries named in this document (tags omitted).
UniProt P06276, whole entry: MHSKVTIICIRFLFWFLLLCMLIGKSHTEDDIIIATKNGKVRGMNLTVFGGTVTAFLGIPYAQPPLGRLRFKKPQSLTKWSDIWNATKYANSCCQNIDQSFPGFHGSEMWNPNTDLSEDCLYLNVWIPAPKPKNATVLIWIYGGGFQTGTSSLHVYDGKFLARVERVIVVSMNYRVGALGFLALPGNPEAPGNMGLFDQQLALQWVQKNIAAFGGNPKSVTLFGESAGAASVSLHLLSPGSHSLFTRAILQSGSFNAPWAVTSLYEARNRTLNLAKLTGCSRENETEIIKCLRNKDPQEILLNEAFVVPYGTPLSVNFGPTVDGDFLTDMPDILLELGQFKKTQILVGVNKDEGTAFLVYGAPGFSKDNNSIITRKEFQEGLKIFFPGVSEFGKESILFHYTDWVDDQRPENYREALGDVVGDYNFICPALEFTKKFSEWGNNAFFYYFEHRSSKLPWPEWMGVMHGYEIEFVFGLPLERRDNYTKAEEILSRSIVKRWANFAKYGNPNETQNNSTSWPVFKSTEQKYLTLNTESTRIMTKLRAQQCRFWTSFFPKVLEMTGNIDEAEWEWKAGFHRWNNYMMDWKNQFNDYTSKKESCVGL

Each structure is given as a SMILES string.

As usually defined, the IC50 is the point on the concentration scale where inhibition reaches its midpoint.

Regarding `CCN(C)C(=O)Oc1cccc([C@H](C)N(C)C)c1` [RIVASTIGMINE], the concentration for half-maximal inhibition (IC50) is 170 nM.
